Tests used:
HCT-116 cells = assay: AlamarBlue cell viability assay, HCT-116 colon cancer cells; type: cell-based, human
in vitro [1] = conditions: human
in vitro [2] = conditions: human; remark: listed apart in the source

SMILES: Oc1c(Cl)cc(Cl)c(Cl)c1Cc1c(O)c(Cl)cc(Cl)c1Cl [Compound 32, Hexachlorophene, reference compound]
- Average Selectivity Index (HCT-116 cells): 10.5
- CC50 (in vitro [1]): 56.6 µM
- CC50 (in vitro [2]): 40.2 µM

SMILES: COc1cc(NC(C)CCCN)c2ncccc2c1 (stereo not shown) [Compound 71, Primaquine, reference compound]
- Average Selectivity Index (HCT-116 cells): 6.2

— patent publication US20250319056A1, “METHODS FOR TREATING CANCER” (THE TRUSTEES OF INDIANA UNIVERSITY, priority 2024, published 2025)
